scFv variants of Ab-14 (heavy chain) against a SARS-CoV-2 spike peptide

Source: Li et al. 2023 (doi:10.1038/s41467-023-39022-2), MIT Lincoln Laboratory and A-Alpha Bio; data file from the FLAb repository.

Target peptide (SARS-CoV-2 spike, HR2 region): PDVDLGDISGINAS

Parent scFv Ab-14: VH joined to VL by the linker GGGGSGGGGSGGGGS. Changes lie in the heavy chain CDRs alone.
VH: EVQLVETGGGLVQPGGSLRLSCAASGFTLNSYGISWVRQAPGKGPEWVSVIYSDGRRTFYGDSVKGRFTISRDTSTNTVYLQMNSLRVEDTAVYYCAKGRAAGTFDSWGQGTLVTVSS
VL: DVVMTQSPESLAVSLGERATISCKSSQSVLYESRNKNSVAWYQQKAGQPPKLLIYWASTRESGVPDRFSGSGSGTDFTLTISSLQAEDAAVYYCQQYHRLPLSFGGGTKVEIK

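The starting antibody came from a phage panning campaign against this peptide. This is the validation round: designs drawn from the data on random variants, tested in the same kind of assay. Their group label is 14H_En_HC (En: ensemble of fine-tuned language models; HC: hill climbing; a sequence that several methods proposed may carry one label only). In AlphaSeq, yeast of one mating type display the scFv and yeast of the other type display the target. Binding brings cells together so that they mate, and sequencing counts the barcode pairs among the diploids. Scores were corrected for input abundance and mapped to Kd with protein pairs of known affinity run in the same pool. Mating was done six times.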

Each variant is given by its three heavy chain CDRs, as the data file delimits them; those of the parent are GFTLNSYGIS, VIYSDGRRTFYGDSVK, GRAAGTFDS.
The read-out is the apparent dissociation constant on a log10 scale (nM): the lower, the stronger.
The mean shown is taken over the replicates in which the pair was detected.
"n.d." marks a missing value. The strain was present, yet no cells mated with the target were sequenced in that replicate, which points to weak or no binding.

CDR-H1	CDR-H2	CDR-H3	log10 Kd (nM) by replicate	log10 Kd (nM), mean	empty controls
GFDLNEYGIS	VIYADGMRTFYTDSVK	GEVAGTFDE	-0.42 / -0.58 / -0.94 / -0.53 / -0.53 / -0.50	-0.58	0/18
GFDLDEYGIS	VIYADGRRTFYQDDVK	GNVAGTFDV	-0.28 / -0.57 / -0.40 / -0.53 / -0.59 / -0.15	-0.42	0/18
GFDLNEYGIS	VIYADGKRTFYSDSVK	GEIAGTFDF	n.d. / n.d. / n.d. / n.d. / n.d. / n.d.	n.d.	0/18
GFDLESYGIS	VIYADGSRTAYADSVK	GNTAGTFNV	0.80 / 0.63 / 0.66 / 0.82 / 1.12 / 1.21	0.87	0/18
GFDLNEYGIS	VIYADGRRTFYADNVK	GEAAGTFDS	-0.10 / -0.14 / -0.31 / -0.36 / -0.46 / -0.16	-0.26	2/18 (2.25)
GFDLEEYGIS	VIYADGRRTFYADSVK	GNVAGTFDS	-0.36 / -0.12 / -0.34 / -0.45 / -0.36 / -0.13	-0.29	0/18
GFDLNEYGIS	VIYADGRRKFYADKVK	GNNAGTFNV	0.05 / -0.27 / -0.19 / -0.36 / -0.30 / 0.28	-0.13	0/18
GFDLNEYGIS	VIYADGMRTFYSDSVK	GEAAGTFDV	-0.12 / 0.00 / -0.31 / -0.53 / -0.14 / -0.23	-0.22	1/18 (0.86)
GFNLNEYGIS	VIYADGRRTFYSDSVK	GEAAGTFDE	-0.07 / -0.40 / -0.41 / -0.21 / -0.55 / -0.11	-0.29	0/18
GFQLDEYGIS	VIYADGRRTAYQDSVK	GEVAGTFDS	-0.06 / 0.32 / 0.18 / 0.51 / 0.33 / 0.25	0.26	0/18
GFDLEEYGIS	VIYADGRRTFYADSVK	GEIAGTFDL	-0.33 / -0.80 / -0.62 / -0.32 / -0.20 / -0.52	-0.47	1/18 (3.69)
GFNLDEYGIS	VIYADGRRTFYSDNVK	GEQAGTFDI	0.06 / 0.04 / 0.00 / 0.23 / 0.35 / 0.47	0.19	0/18
GFDLNEYGIS	VIYADGRRTAYSDSVK	GEVAGTFDF	-0.52 / 0.27 / -0.57 / -1.05 / -0.96 / -0.92	-0.62	2/18 (1.60)
GFDLNEYGIS	VIYADGRRTAYIDSVK	GEIAGTFDK	-0.27 / -0.36 / -0.43 / -0.53 / -0.44 / -0.17	-0.37	0/18
GFNLNEYGIS	VIYADGRRKFYADSVK	GETAGTFDV	-0.29 / -0.36 / -0.43 / -0.75 / -0.46 / -0.31	-0.43	0/18
GFDLNEYGIS	VIYADGRRTFYSDSVK	GQVAGTFDE	-0.44 / -0.01 / -0.28 / -0.02 / -0.33 / -0.06	-0.19	0/18
GFDLNEYGIS	VIYADGRRTFYADNVK	GEVAGTFSV	-0.16 / 0.19 / -0.20 / -0.59 / -0.52 / -0.14	-0.24	1/18 (2.95)
GFDLEDYGIS	VIYADGRRTFYSDSVK	GEIAGTFDE	-0.23 / -0.40 / -0.65 / -0.69 / -0.30 / 0.02	-0.38	0/18
GFDLNEYGIS	VIYADGRRTFYADSVK	GQEAGTFDI	1.23 / n.d. / n.d. / n.d. / n.d. / n.d.	1.23	0/18
GFDLNEYGIS	VIYADGRRTFYSDSVK	GEVAGTFDQ	-0.04 / 0.00 / -0.01 / -0.29 / 0.01 / 0.17	-0.02	0/18
GFDLEDYGIS	VIYADGRRTAYSDSVK	GEIAGTFDS	-0.23 / -0.09 / 0.00 / -0.26 / -0.01 / -0.12	-0.12	1/18 (0.34)
GFDLNEYGIS	VIYADGVRTSYVDSVK	GETAGTFDV	2.65 / 1.96 / 0.88 / 1.13 / 1.08 / 2.78	1.75	0/18
GFDLESYGIS	VIYADGMRTAYADSVK	GNVAGTFDV	-0.63 / -0.72 / -0.78 / -0.95 / -0.76 / -0.62	-0.74	2/18 (2.99)
GFDLNEYGIS	VIYADGRRTFYSDSVK	GEQAGTFDV	-0.24 / -0.20 / -0.31 / -0.50 / -0.50 / -0.03	-0.30	0/18
GFDLDEYGIS	VIYADGRRTFYADSVK	GQNAGTFDL	-0.92 / -0.74 / -0.30 / -0.20 / -0.90 / -0.82	-0.65	0/18
GFDLNEYGIS	VIYADGRRTFYKDSVK	GEQAGTFDQ	-0.06 / -0.10 / 0.00 / 0.02 / -0.08 / 0.04	-0.03	0/18
GFDLEEYGIS	VIYADGRRTFYSDSVK	GENAGTFDS	0.14 / -0.22 / -0.36 / 0.11 / -0.70 / -1.02	-0.34	0/18
GFDLNEYGIS	VIYADGVRTFYADSVK	GTNGGTFDV	-0.08 / n.d. / n.d. / -0.99 / -0.43 / -0.09	-0.40	0/18
GFGLNEYGIS	VIYADGRRTFYADSVK	GNQAGTFDQ	-0.18 / -0.05 / -0.38 / -0.34 / 0.05 / -0.32	-0.20	0/18
GFDLNDYGIS	VIYADGRRTAYIDSVK	GEVAGTFDK	-0.64 / -0.54 / -0.60 / -0.65 / -0.58 / -0.33	-0.56	0/18
GFDLNEYGIS	VIYADGRRTFYSDSVK	GELAGTFDS	-0.64 / -0.83 / -0.56 / -1.03 / -0.37 / -0.43	-0.64	0/18
GFDLNEYGIS	VIYADGLRTSYDDSVK	GQLAGTFDV	-0.15 / 0.02 / -0.18 / -0.39 / 0.09 / -0.24	-0.14	0/18
GFDLNEYGIS	VIYADGRRTFYIDSVK	GTAAGTFDL	-0.11 / -0.22 / -0.63 / -0.18 / -0.56 / -0.17	-0.31	0/18
GFDLNEYGIS	VIYADGLRTSYADSVK	GQLAGTFDL	n.d. / 1.04 / n.d. / n.d. / n.d. / n.d.	1.04	0/18
GFNLDEYGIS	VIYADGRRTFYADSVK	GQIAGTFDV	-0.29 / -0.06 / -0.83 / -0.54 / -0.74 / -0.49	-0.49	0/18
GFDLNEYGIS	VIYADGRRTFYTDSVK	GNNAGTFLV	0.49 / 0.60 / 0.46 / 0.97 / 0.68 / 0.64	0.64	1/18 (2.57)
GFDLNEYGIS	VIYADGRRTAYADSVK	GHAAGTFDS	-0.64 / -0.55 / -0.41 / -0.64 / -0.66 / -0.27	-0.53	0/18
GFDLNEYGIS	VIYADGRRTFYSDSVK	GQTGGTFDT	-1.54 / n.d. / n.d. / -0.45 / -1.18 / -1.55	-1.18	0/18

Picked from the list: the 3 lowest averages where every replicate gave a value.

{"CDR-H1": "GFDLESYGIS", "CDR-H2": "VIYADGMRTAYADSVK", "CDR-H3": "GNVAGTFDV", "log10 Kd (nM) by replicate": "-0.63 / -0.72 / -0.78 / -0.95 / -0.76 / -0.62", "log10 Kd (nM), mean": "-0.74", "empty controls": "2/18 (2.99)"}
{"CDR-H1": "GFDLDEYGIS", "CDR-H2": "VIYADGRRTFYADSVK", "CDR-H3": "GQNAGTFDL", "log10 Kd (nM) by replicate": "-0.92 / -0.74 / -0.30 / -0.20 / -0.90 / -0.82", "log10 Kd (nM), mean": "-0.65", "empty controls": "0/18"}
{"CDR-H1": "GFDLNEYGIS", "CDR-H2": "VIYADGRRTFYSDSVK", "CDR-H3": "GELAGTFDS", "log10 Kd (nM) by replicate": "-0.64 / -0.83 / -0.56 / -1.03 / -0.37 / -0.43", "log10 Kd (nM), mean": "-0.64", "empty controls": "0/18"}

The authors averaged sequences with at least three values out of six and counted those with two or fewer as poor binders.
As a blank, each scFv also met three strains without target: over all heavy chain designs, 1% of these pairings were detected, typically at 2.08 and seldom below 0.84. For each scFv, signals with the empty controls are counted beside the result, with their mean in brackets.
Of ten entries with the parent sequence, four were seen in most replicates (averages 0.34 to 2.37), three in one and three in none, so single entries are noisy.
The range of this assay differs from that of the first round, and the authors advise against merging the two.